We go through one compound from patent publication US6855807B1 (priority 1999, dated 2005).

Amino acid sequences for entries named in this document (tags omitted). A change or cut given only in a name is not applied to a line headed by its entry.
UniProt P32300, whole entry, looked up: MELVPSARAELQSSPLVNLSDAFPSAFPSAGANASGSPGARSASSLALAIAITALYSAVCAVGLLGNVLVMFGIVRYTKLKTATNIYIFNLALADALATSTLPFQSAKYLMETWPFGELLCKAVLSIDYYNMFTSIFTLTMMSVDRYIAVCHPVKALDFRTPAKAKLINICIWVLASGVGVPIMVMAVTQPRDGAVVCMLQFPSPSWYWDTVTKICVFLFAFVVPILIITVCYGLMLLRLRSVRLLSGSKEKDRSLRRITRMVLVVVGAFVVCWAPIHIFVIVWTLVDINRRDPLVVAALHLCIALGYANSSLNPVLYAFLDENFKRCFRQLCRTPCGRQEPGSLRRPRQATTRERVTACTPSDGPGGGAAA
UniProt P34975: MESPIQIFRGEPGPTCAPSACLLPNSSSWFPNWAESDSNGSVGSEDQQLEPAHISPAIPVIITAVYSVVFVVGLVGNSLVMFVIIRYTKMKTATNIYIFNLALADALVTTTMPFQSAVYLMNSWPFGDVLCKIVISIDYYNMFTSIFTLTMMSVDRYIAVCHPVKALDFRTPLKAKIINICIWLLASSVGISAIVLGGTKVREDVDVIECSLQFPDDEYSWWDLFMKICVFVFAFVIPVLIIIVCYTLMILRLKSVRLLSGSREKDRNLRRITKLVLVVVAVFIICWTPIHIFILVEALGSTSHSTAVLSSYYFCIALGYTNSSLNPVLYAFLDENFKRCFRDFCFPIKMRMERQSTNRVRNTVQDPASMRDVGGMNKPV

For one experiment, the target named is kappa-delta heterodimer (UniProt P32300+P34975). The following applies: read-out: Kappa-Delta (Ki); ligand alone; 0.5 nM 3H-diprenorphine; mean ± SEM (n = 3-4).
In a further experiment the target is kappa opioid receptor (Rattus norvegicus, UniProt P34975). The following applies: read-out: Kappa (Ki); ligand alone; competition with 3H-diprenorphine; mean ± SEM (n = 3-4).

pKi: −log10 of the molar value.

Regarding `CO[C@]12CC[C@@]3(C[C@@H]1C(C)(C)O)[C@H]1Cc4ccc(O)c5c4[C@@]3(CCN1CC1CC1)[C@H]2O5`, the figures for the pKi at kappa-delta heterodimer and at kappa opioid receptor were 9.52 and 9.15, respectively.
